Rows were chosen to be rich in hits. Some 1.9% of all compounds tested hit in one or more screens of this group.
PglD inh: PglD (C. jejuni) enzyme inhibition. AID 602405. inhibition, % at 12.5 µM. purified PglD enzyme, DTNB colorimetric CoA detection. actives 0.098% (n = 360,000); in the data active = inhibition above about 16%, passing the limit was not always enough
Yeast UUG start: modulators of yeast start codon fidelity, primary screen, whole organism, S. cerevisiae, single point, plate reader. S. cerevisiae UUG-firefly luciferase reporter, luminescence/redox ratio. activity score, % at 18.7 µM. actives 0.13% (n = 350,000);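 active = replicate mean at a twofold rise or more, about +100% in these data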;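 note: firefly luciferase made from a UUG start codon reports start codon fidelity; reporter light over untreated wells divided by growth signal over untreated wells; some hits fall short of that in this replicate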
ERp5 inh: ERp5 (human) disulfide isomerase inhibition. Q15084. ERp5 insulin aggregation, absorbance 650 nm, 90 min. inhibition, % at 9.99 µM. actives 0.05% (n = 350,000). AID 651711;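 active = mean replicate inhibition above about 25%, with every replicate also reaching it, limit read from the data, passing the limit was not always enough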
PDI turbidity: inhibitors of human protein disulfide isomerase; P07237; PDI insulin aggregation turbidity, A650, 90 min; inhibition, % at 10 µM; actives 0.052% (n = 350,000); AID 588391;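 active = mean inhibition across replicates of 30% or more, whatever share of single replicates reach that level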
FGF22 binding: FGF22 (human) thermal shift binding | recombinant FGF22 thermal shift, SYPRO orange fluorescence; percent of sucrose octasulfate shift, DMSO zero | activity (Tm shift, normalised), % at 9.99 µM | actives 1.5% (n = 340,000);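 active = mean Tm shift, scaled 0 neutral to 100 positive control, at about 1.3% or above, every replicate too, limit read from the data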
ARNT-TACC3 inh: ARNT/TACC3 interaction disruption; AlphaScreen His-ARNT PAS-B/GST-TACC3 binding, luminescence; TACC3 fragment carries E629A point mutation; inhibition, % at 9.99 µM; actives 0.66% (n = 390,000); Q9Y6A5;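 active = mean inhibition of replicates at least 50% and at least half of replicates each reaching 50%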
Large screens that a line does not name were inactive.

C[C@@H]1CN([C@H](C)CO)C(=O)c2cc(C#CC3CC3)cnc2O[C@@H]1CN(C)Cc1ccccc1C(=O)O	none (no result: PDI turbidity)
CC(C)CC#Cc1cnc2c(c1)C(=O)N([C@H](C)CO)C[C@H](C)[C@H](CN(C)Cc1ccccc1C(=O)O)O2	ERp5 inh 37 (no result: PDI turbidity)
C[C@@H]1CN([C@@H](C)CO)C(=O)c2cc(C#CC3(O)CCCC3)cnc2O[C@H]1CN(C)C(=O)Cc1cccnc1	ERp5 inh 28 (no result: PDI turbidity)
C[C@@H]1CN([C@H](C)CO)C(=O)c2cc(C#CCN(C)C)cnc2O[C@H]1CN(C)Cc1cccc(F)c1	ERp5 inh 57 (no result: PDI turbidity)
C[C@@H]1CN([C@H](C)CO)S(=O)(=O)c2ccc(C#CCN(C)C)cc2O[C@H]1CN(C)C(=O)Nc1ccccc1F	none (no result: PDI turbidity)
C[C@@H]1CN([C@H](C)CO)C(=O)Cc2cc(NC(=O)CCC(F)(F)F)ccc2O[C@H]1CN(C)C(=O)Nc1ccc(C(F)(F)F)cc1	none (no result: ERp5 inh, PDI turbidity)
COc1ccc(S(=O)(=O)Nc2ccc3c(c2)C(=O)N([C@@H](C)CO)C[C@@H](C)[C@H](CN(C)C(=O)c2ccncc2)OCCCC[C@@H](C)O3)cc1	none (no result: PDI turbidity)
CC1(C)Cc2ccccc2C(NNC(=O)c2ccccn2)=N1	ARNT-TACC3 inh 66 (no result: ERp5 inh, FGF22 binding)
CCO[C@H]1OC(C(=O)N2CCN(Cc3ccc4c(c3)OCO4)CC2)=C[C@@H](C)[C@@H]1CCCO	FGF22 binding 9.2
COc1ccc(CN(C)Cc2c(O)ccc3cc(Br)ccc23)cc1OC	FGF22 binding 1.7
CC(C)OC(=O)C1C(=O)CC(C)(O)C(C(=O)OC(C)C)C1c1ccc(F)cc1 (stereo not given)	none (no result: PglD inh, Yeast UUG start)
CC(C)OC(=O)C1CC(C)(O)C(=O)C(C(=O)OC(C)C)C1c1ccc([N+](=O)[O-])cc1 (stereo not given)	FGF22 binding 43 (no result: PglD inh, Yeast UUG start)
Fc1cccc(/C=N/Nc2ncnc3nc[nH]c23)c1	ARNT-TACC3 inh 47
CCc1nnc(NC(=O)CSc2n[nH]c(-c3ccccc3O)n2)s1	FGF22 binding 1.8
Cc1nnc(NC(=O)CSc2n[nH]c(-c3ccccc3C)n2)s1	none
C[C@H](CO)N1C[C@H](C)[C@H](CN(C)C(=O)C2CCCCC2)Oc2cc(C3=CCCC3)ccc2S1(=O)=O	none (no result: PDI turbidity)
CN1CCN(c2ccc(NC(=O)c3ccc(Br)o3)cc2)CC1	none
CCC(=O)N1CCN(c2ccc(NC(=O)c3ccc(Br)o3)cc2)CC1	FGF22 binding 44 (no result: PglD inh, Yeast UUG start, ARNT-TACC3 inh)
COc1ccc(-c2c[n+](CC(=O)OC3CC(C)CCC3C(C)C)c3n2CCC3)cc1 (stereo not given)	FGF22 binding 43
CCNc1nc(SC(C)C(=O)Nc2ccccc2)nc(N(C)C)n1 (stereo not given)	FGF22 binding 43
CCNc1nc(NCC)nc(OCCOC(=O)Nc2ccccc2)n1	none
CCNc1nc(NCC)nc(C(=O)Nc2ccccc2)n1	ARNT-TACC3 inh 96 (no result: ERp5 inh, FGF22 binding)
CC(C)c1cn(CC[C@@H]2CC[C@@H](NS(=O)(=O)c3ccccc3)[C@H](CO)O2)nn1	none (no result: PDI turbidity)
O=C(c1cccnc1)N1C[C@@H]2N[C@H](C1)C2c1ccc(-c2cccnc2)cc1 (stereo not given in full)	none (no result: PglD inh, Yeast UUG start, PDI turbidity, FGF22 binding, ARNT-TACC3 inh)
C[C@@H]1CN([C@H](C)CO)C(=O)c2cccc(N(C)C)c2O[C@@H]1CN(C)C	none (no result: PDI turbidity)
NC(=O)[C@@H]1[C@H]2C(=O)O[C@H](c3ccccc3)[C@H](c3ccccc3)N2[C@H](c2ccccc2OCCO)[C@@]12C(=O)Nc1ccc(C#CCCO)cc12	none (no result: PDI turbidity)
O=C1O[C@@H](c2ccccc2)[C@@H](c2ccccc2)N2[C@@H](c3ccccc3OCCO)[C@]3(C(=O)Nc4ccc(C#CCCO)cc43)[C@@H](C(=O)O)[C@H]12	FGF22 binding 16 (no result: PDI turbidity)
C=CCNC(=O)[C@H]1[C@@H]2C(=O)O[C@@H](c3ccccc3)[C@@H](c3ccccc3)N2[C@@H](c2ccccc2OCCO)[C@]12C(=O)Nc1ccc(C#CC3(O)CCCCCC3)cc12	FGF22 binding 33 (no result: PDI turbidity)
C=CCNC(=O)[C@H]1[C@@H]2C(=O)O[C@@H](c3ccccc3)[C@@H](c3ccccc3)N2[C@@H](c2ccc(O)cc2)[C@]12C(=O)N(C(=O)OCCOC)c1ccc(C#CCC(C(=O)OC)C(=O)OC)cc12	FGF22 binding 18 (no result: PDI turbidity)
Cc1noc(C)c1NC(=O)Nc1ccc2c(c1)C(=O)N([C@H](C)CO)C[C@@H](C)[C@@H](CN(C)Cc1ccc(C(=O)O)cc1)OCCCC[C@H](C)O2	none (no result: ERp5 inh, PDI turbidity)
NNC(=O)c1sc(-c2ccccc2)cc1N	FGF22 binding 44 (no result: PglD inh, Yeast UUG start)
O=C(C[n+]1ccc(Cc2ccccc2)cc1)Nc1ccc([N+](=O)[O-])cc1Cl	none (no result: PglD inh, Yeast UUG start)
Cc1ccc(Cl)cc1NC(=O)C[n+]1ccc(Cc2ccc([N+](=O)[O-])cc2)cc1	ARNT-TACC3 inh 51 (no result: PglD inh, Yeast UUG start)
O=S(=O)(NC(=S)NC1CCCCC1)c1cccs1	FGF22 binding 43 (no result: PglD inh, Yeast UUG start)
CCCN1C[C@H](C)[C@@H](OC)CN(C)C(=O)c2cc(NC(=O)Nc3cccc(F)c3)ccc2OC[C@H]1C	none (no result: Yeast UUG start, ERp5 inh, PDI turbidity, FGF22 binding)
CCC(C)n1nccc1NC(=O)C(C)Cl (stereo not given)	FGF22 binding 43 (no result: PglD inh, Yeast UUG start)
Cc1ccccc1C(=O)NCC(=O)OC(C)C(=O)Nc1ccnn1C(C)C (stereo not given)	none
CN(C(=O)C1Cc2c(-c3ccccc3Oc3ccccc3)ccnc2O1)c1ccccc1 (stereo not given)	none (no result: ARNT-TACC3 inh)
CN(C(=O)C1Cc2c(-c3ccc(Cl)cc3)ccnc2O1)c1ccccc1 (stereo not given)	FGF22 binding 25 (no result: ARNT-TACC3 inh)
C[C@H](CO)N1C[C@H](C)[C@H](CN(C)Cc2ccc3c(c2)OCO3)OCCCC[C@H](C)Oc2ccc(NC(=O)Nc3ccc(C(F)(F)F)cc3)cc2C1=O	ARNT-TACC3 inh 46 (no result: PDI turbidity)
C[C@H]1CCCCO[C@H](CN(C)Cc2ccc3c(c2)OCO3)[C@@H](C)CN([C@@H](C)CO)C(=O)c2cc(NC(=O)Nc3ccc(C(F)(F)F)cc3)ccc2O1	ARNT-TACC3 inh 57 (no result: PDI turbidity)
CCNC(=O)Nc1ccc2c(c1)C(=O)N(C)[C@H]1CC[C@@H](CC(=O)N[C@H](C)c3ccccc3)O[C@H]1CO2	ARNT-TACC3 inh active (no result: Yeast UUG start, PDI turbidity)
CC(=O)Nc1ccc2c(c1)C(=O)N(C)[C@@H]1CC[C@@H](CC(=O)NCC3CC3)O[C@H]1CO2	ERp5 inh 71 (no result: PDI turbidity)
CN1C(=O)c2cc(NC(=O)c3cccc(F)c3)ccc2OC[C@H]2O[C@@H](CC(=O)NCc3ccccc3Cl)CC[C@H]21	FGF22 binding 1.6 (no result: PDI turbidity)
CN1C(=O)c2cc(NC(=O)c3cccc(F)c3)ccc2OC[C@@H]2O[C@@H](CC(=O)NCc3ccccc3Cl)CC[C@H]21	none (no result: PDI turbidity)
O=C(CCCCn1ccc(=O)[nH]c1=O)Nc1ccc(C(=O)O)c(O)c1	none
O=C(CCCCn1ccc(=O)[nH]c1=O)Nc1ccc(O)c(C(=O)O)c1	FGF22 binding 43

From PubChem BioAssay
